Consider two substances from US20170136093A1, “METHOD FOR PREVENTING OR TREATING OCULAR DISORDERS” (Zietchick Research Institute, LLC, priority 2014, published 2017).

Where two headings read alike, the source gives them in different places.

The conditions of data set [1]: cited from earlier work.
For the next data set, the system named is VEGFA. Description: Murine neural retinal VEGFA expression after intraperitoneal hCG (real-time PCR, ddCT). The data set is classed as in vivo, C57BL/6 wild type mice. An excerpt: In the uterine vasculature, the pro-angiogenic hormone, hCG, is an important regulator of vascular endothelial growth factor (VEGF) and two VEGF receptors, (VEGFR-1, VEGFR-2) I propose that hCG also functions as an ocular VEGF regulator. The hallmark of early stage ROP, regression of immature retinal vasculature, results from hyperoxia-induced suppression of VEGF. The abnormal neovascularization characteristic of advanced stage ROP results from the retina's exuberant upregulation of VEGF to overcompensate for the earlier oxygen-induced VEGF suppression. The following experiment(s) was performed. Relative Quantity Chart (one control from each group set as calibrator) Murine Neural Retinal VEGFA expression post intraperitoneal administration of PBS (control vehicle) versus hCG (test compound) P=postnatal day (i.e. P7=postnatal day 7); (SDS v1.4 ddCT study, Applied Biosystems 7500 Fast Real-Time PCR System). 1320 IU/kg intraperitoneal human chorionic gonadotropin (hCG) or phosphate but saline were intraperitoneally administered, to C57BL/6 wild type mice.
(a) Group 1: P7 murine neonates, were injected with either hCG or PBS with retinal processing one day, later.
(b) Group 2: P25 young adult mice, received either an injection of hCG or PBS with retinal processing the next day. There were two controls and two test mice in this group.
(c) Group 3: P29/P30 young adult mice, received 2 doses of either hCG or PBS, one dose on each of two consecutive days with retinal processing the day after the second dose. There was one control (PBS) and one test mouse (hCG) in this group. There was a 400% significant (p<0.05) increase in VEGFa expression in the test mouse vs the control.
(Quantitative PCR measures a nucleic acid by following its amplification.)

Data set [2] deals with mouse model of oxygen induce retinopathy (OIR). It is filed as in vivo. Conditions: for increase of preretinal nucleus count: histology on P17, vs vehicle. The protocol: The aim of this study was to assess the effect of human chorionic gonadotropin hormone (hCG) delivered intraperitoneally on retinal neovascularization in the mouse model of oxygen induce retinopathy (OIR).
Three (3) litters of five (5) pup mice were used, one in each treatment group. The retinopathy was induced in Day-7 postnatal animals (P7) by a 5-day exposure to a 75% oxygen atmosphere (from P7 to P12). Animals were then kept in normoxia. Animals were treated by once daily intraperitoneal (ip) administrations of hCG at 1320 or 1600 IU/kg and vehicle control for 10 consecutive days (from P5 to P14). On P17, both eyeballs were removed and processed for histology.
The retinal neovascularization was evaluated by counting preretinal nuclei, i.e. the nuclei from the new vessels extending into the vitreal side of the internal limiting membrane in histological sections from both eyes.

Take human chorionic gonadotropin [hCG]: the half-life (as a rule, the time needed for the level to fall by half in the phase considered) in data set [1] was greater than 24 h. In the data set on VEGFA (Group 1: P7 murine neonates, 1320 IU/kg ip single injection, retinal processing one day later, average of two test mice), the “increase in retinal VEGFa expression compared to control” value worked out at 70%. Further, the “decline in retinal VEGFa expression” value in the data set with VEGFA (Group 2: P25 young adult mice, 1320 IU/kg ip single injection, processing next day, one of two test mice, nonsignificant) is 20%. Moreover, the “increase in VEGFa expression over each control” value with VEGFA (Group 2: P25 young adult mice, 1320 IU/kg ip single injection, processing next day, the other test mouse, p<0.05) was 70%. Further, the “increase in VEGFa expression vs control” value with VEGFA (Group 3: P29/P30 young adult mice, 2 doses of 1320 IU/kg ip on two consecutive days, processing the day after second dose, one test mouse, p<0.05) is listed as 400%. The “upregulation of VEGF in the mice tested” value in the data set on VEGFA (summary of Groups 1-3 (FIG. 3)) is “significant upregulation”. For the same substance, the retinal neovascularization result in data set [2] (doses of 1320 and 1600 IU/kg, mouse model of OIR) is “significantly increased”. Besides, the “increase of preretinal nucleus count” value in data set [2] (hCG 1320 IU/kg ip once daily P5 to P14, OIR pup mice, p=0.004) is given as 61%; in data set [2] (hCG 1600 IU/kg ip once daily P5 to P14, OIR pup mice, p=0.0085), 51%.

For luteinizing hormone [LH], in data set [1], the half-life was 0.333 h.
